From patent US20240309099A1

Target: human HER3 (purchased from Acro Bio) (human) (UniProt P21860)
Experiment: BLI (Octet384), antibody captured on AHC tips, HER3 (Acro Bio) 0-100 nM in solution, global 1:1 fit

With “SI-1X24 (bispecific antibody; other documents disagree on this pair)” the Kd was 106 nM, the Response was 0.372 and the koff was 0.0321 s⁻¹. It also gave a kon of 303000 M⁻¹ s⁻¹.
